Measured values as given in patent US5438056A (priority 1993, dated 1995).

Chains of the proteins cited; added tags and fusions are not shown. Residues count along the entry.
UniProt P19835, 21-753 limits assumed: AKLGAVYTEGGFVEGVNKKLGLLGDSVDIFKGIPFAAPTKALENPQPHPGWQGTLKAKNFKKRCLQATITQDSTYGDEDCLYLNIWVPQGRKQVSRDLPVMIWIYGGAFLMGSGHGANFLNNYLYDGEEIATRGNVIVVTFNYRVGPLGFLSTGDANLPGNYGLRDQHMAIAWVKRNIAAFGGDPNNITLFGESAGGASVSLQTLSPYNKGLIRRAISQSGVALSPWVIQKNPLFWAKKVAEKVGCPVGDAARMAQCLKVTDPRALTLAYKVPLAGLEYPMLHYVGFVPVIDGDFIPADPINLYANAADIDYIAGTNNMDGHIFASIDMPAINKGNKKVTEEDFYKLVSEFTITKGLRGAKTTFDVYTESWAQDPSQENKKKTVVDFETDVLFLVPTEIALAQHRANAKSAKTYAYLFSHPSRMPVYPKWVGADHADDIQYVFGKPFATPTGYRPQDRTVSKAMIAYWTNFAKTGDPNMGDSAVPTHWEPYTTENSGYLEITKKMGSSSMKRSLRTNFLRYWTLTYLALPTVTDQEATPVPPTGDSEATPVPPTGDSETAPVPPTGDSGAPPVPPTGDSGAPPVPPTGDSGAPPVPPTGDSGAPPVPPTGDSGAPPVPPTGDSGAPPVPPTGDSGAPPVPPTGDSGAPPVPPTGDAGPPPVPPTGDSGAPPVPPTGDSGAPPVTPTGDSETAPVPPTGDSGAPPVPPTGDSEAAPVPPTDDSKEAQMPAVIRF

Target: cholesterol ester hydrolase (Homo sapiens, UniProt P19835)
Assay: IC50 against CEH (cholesterol ester hydrolase), in vitro
Assay type: biochemical
Conditions: read-out: IC50 against CEH

| SMILES | IC50 [µM] |
| --- | --- |
| CCCCNC(=O)ON=c1c2ccccc2oc2ccccc12 | 0.6 |
| CCCCNC(=O)ON=C(c1ccc(N(C)C)cc1)c1ccccn1 [Example 20] | 4.6 |
